# Several values for one entry are separate records, joined by “and”; a condition that tells them apart may be missing. Equal entries are not always repeated. Only a part is listed here, and it is no random draw. Some tests of the compounds listed are not included; inactive here does not mean inactive elsewhere. Results filed as inconclusive are left out. Activity calls are given as the source filed them. Calls come from the whole dose curve; as a rule, active = well fitted inhibition curve with a large enough effect; inconclusive = small, poorly fitted or top-dose-only effect, or another doubt; inactive = no such curve, though single readings can be large or run the other way.
# Sequences of proteins named here, by UniProt entry; tags and fusion partners are left off.
# UniProt Q9UNA4, whole entry: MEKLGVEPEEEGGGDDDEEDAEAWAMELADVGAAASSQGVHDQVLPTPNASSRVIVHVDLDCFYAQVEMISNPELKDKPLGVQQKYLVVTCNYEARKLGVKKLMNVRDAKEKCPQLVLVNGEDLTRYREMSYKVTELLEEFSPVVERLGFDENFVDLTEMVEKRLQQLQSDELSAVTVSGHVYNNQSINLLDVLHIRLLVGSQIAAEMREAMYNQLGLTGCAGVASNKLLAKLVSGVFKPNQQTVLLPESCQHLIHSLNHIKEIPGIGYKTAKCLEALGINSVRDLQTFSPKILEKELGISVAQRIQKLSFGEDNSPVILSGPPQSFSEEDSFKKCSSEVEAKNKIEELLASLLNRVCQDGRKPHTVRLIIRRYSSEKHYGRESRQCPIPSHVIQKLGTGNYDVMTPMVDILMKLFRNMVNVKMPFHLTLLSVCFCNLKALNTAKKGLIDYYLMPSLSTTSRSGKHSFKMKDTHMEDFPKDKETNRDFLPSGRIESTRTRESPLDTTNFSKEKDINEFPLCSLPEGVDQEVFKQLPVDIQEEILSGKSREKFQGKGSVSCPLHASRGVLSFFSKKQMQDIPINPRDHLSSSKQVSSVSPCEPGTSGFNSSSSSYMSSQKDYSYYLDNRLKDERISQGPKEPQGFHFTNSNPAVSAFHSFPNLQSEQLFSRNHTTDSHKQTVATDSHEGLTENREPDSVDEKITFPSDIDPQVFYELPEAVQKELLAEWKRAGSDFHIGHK
# Molecular target: DNA polymerase iota (Homo sapiens) (UniProt Q9UNA4)
# Test: qHTS for Inhibitors of Polymerase Iota
# Settings: Pol iota fluorescent replication assay, 10 min; at 115 µM (top of the series)
row,SMILES,"activity, negative = inhibition"
1,CN(C)C1(CNC(=O)c2ccc(Br)cc2)CCCCC1,inactive: -22.7%
2,COc1cc(C(=O)NCC2(N(C)C)CCCCC2)c([N+](=O)[O-])cc1OC,inactive: -28.6%
3,COc1ccc(C(=O)NCC2(N(C)C)CCCCC2)cc1Cl,inactive: 18%
4,COc1ccc(Cl)cc1C(=O)NCC1(N(C)C)CCCCC1,inactive: 162%
5,COc1cccc(C(=O)NCC2(N3CCCCC3)CCCCC2)c1,inactive: 79%
6,O=C(NCC1(N2CCCCC2)CCCCC1)c1cccc(Cl)c1,inactive: 11.2%
7,O=C(OC1CN2CCC1CC2)C(CO)(c1ccccc1)c1ccccc1 (centres undefined),inactive: -2.73%
8,COc1cccc(C(=O)NCC2(N3CCOCC3)CCCCC2)c1,inactive: 6.87%
9,CC(C)COc1ccc(C(=O)NCC2(N(C)C)CCCCC2)cc1,inactive: 21.1%
10,COc1ccc(Br)c(C(=O)NCC2(N3CCCCC3)CCCCC2)c1,inactive: 0.779%
11,COc1cc(C(=O)NCC2(N(C)C)CCCCC2)cc(OC)c1OC,inactive: 23.8%
12,Cc1cccc(C(=O)NCC2(N(C)C)CCCCC2)c1,inactive: 42.5%
13,CN(C)c1cccc(C(=O)NCC2(N(C)C)CCCCC2)c1,inactive: 11.7%
14,O=C(OCCN1CCCC1)C(O)(c1ccccc1)c1ccccc1,inactive: 94.7%
15,CC(C)Oc1ccc(C(=O)NCC2(N(C)C)CCCCC2)cc1,inactive: 25.1% and inactive: 141%
16,O=C(NCC1(N2CCCCC2)CCCCC1)c1cc([N+](=O)[O-])ccc1Cl,inactive: 24.6%
17,CN1[C@@H]2CC[C@H]1CC(OC(=O)C(O)(c1ccccc1)c1ccccc1)C2 (some centres undefined),inactive: 15.9%

row,SMILES,"activity, negative = inhibition"
1,CC(C)N1C(=O)CC2(CCN(CCOC(=O)C(O)(c3ccccc3)c3ccccc3)CC2)C1=O,inactive: 12.4%
2,COc1cc(SC)ccc1C(=O)NCC1(N(C)C)CCCCC1,inactive: -17.2%
3,CN(C)C1(CNC(=O)c2cccc(Cl)c2)CCCCC1,inactive: 34.1%
4,CCN(CC)CC(C)C(C)OC(=O)C(O)(c1ccccc1)c1ccccc1 (centres undefined),inactive: 37.3%
5,CN(C)C1(CNC(=O)c2ccccc2F)CCCCC1,inactive: 25.3%
6,CN(C)c1ccc(C(=O)NCC2(N(C)C)CCCCC2)cc1,inactive: 156%
7,CN(C)C1CCCC1OC(=O)C(O)(c1ccccc1)c1ccccc1 (centres undefined),inactive: -7.16%
8,Cc1ccccc1C(=O)NCC1(N2CCCCC2)CCCCC1,inactive: 12.5%
9,CN(C)C1(CNC(=O)c2ccccc2[N+](=O)[O-])CCCCC1,inactive: 37.6%
10,CCCCOc1ccccc1C(=O)NCC1(N(C)C)CCCCC1,inactive: 1.35%
11,O=C(NCC1(N2CCCCC2)CCCCC1)c1cc(F)c(F)cc1Cl,inactive: 180%
12,C=CCN1CCN(CCOC(=O)C(O)(c2ccccc2)c2ccccc2)CC1,inactive: -20.7%
13,O=C(NCC1(N2CCCCC2)CCCCC1)c1cccc(Br)c1,inactive: 29.5%
14,CCN1CCCC(OC(=O)C2(O)c3ccccc3C=Cc3ccccc32)C1 (centres undefined),inactive: 2.06%
15,Cc1cc(C(=O)NCC2(N3CCCCC3)CCCCC2)ccc1[N+](=O)[O-],inactive: 51.7%
16,CCOc1cccc(C(=O)NCC2(N(C)C)CCCCC2)c1,inactive: 12.1%
17,COc1ccc(C(=O)NCC2(N(C)C)CCCCC2)cc1,inactive: 18.2%

# — PubChem BioAssay AID588590 (National Center for Advancing Translational Sciences (NCATS), 2011)
